Tests used:
[1] = molecular target: beta-catenin/TCF4 interaction (Homo sapiens, UniProt P35222); test: cell-based; design: host or cells: HEK293; conditions: NanoBRET Abs IC50 (uM)
[2] = molecular target: T1, full-length B-Catenin (Uniprot ID P35222) (Homo sapiens, UniProt P35222); test: biochemical; format: binding; conditions: beta-Catenin FP IC50 (nM), competition fluorescence polarization
T1 construct: 10 nM full-length B-Catenin (Uniprot ID P35222)

Sequences of proteins named here, by UniProt entry; tags and fusion partners are left off.
UniProt P35222, whole entry: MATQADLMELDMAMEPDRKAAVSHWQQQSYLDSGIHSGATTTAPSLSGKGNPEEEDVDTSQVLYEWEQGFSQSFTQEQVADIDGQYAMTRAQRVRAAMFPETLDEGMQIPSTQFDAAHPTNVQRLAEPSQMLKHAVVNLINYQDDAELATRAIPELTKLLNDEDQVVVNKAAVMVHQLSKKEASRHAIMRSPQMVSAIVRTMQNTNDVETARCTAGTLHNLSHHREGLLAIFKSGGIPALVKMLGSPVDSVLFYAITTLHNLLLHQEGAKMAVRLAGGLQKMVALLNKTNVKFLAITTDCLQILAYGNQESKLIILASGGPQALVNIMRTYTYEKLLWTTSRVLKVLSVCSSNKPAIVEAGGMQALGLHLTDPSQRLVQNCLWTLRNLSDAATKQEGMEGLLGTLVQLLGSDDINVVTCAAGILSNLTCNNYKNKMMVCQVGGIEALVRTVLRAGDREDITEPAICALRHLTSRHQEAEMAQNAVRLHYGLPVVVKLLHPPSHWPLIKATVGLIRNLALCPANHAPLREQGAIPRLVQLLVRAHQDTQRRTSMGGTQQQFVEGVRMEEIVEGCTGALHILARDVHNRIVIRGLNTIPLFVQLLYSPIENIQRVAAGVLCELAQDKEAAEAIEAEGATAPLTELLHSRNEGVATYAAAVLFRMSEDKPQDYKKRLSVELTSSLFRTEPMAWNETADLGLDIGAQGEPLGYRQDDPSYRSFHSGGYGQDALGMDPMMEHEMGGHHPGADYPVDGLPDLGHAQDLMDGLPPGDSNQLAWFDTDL

Compound	IC50 ([1]; absolute IC50)	IC50 [2]	IC50 [1]
CC(=O)N1CCC[C@]12CC=CCCCC1(CCCC=CCCCOC(=O)N3CC[C@@]4(C3)NC(=O)[C@H](CCCCNC(=O)CC[C@@H](C(=O)N[C@@H](C)C(N)=O)NC(=O)[C@H](Cc3csc5ccccc35)NC(=O)[C@H](Cc3ccsc3)NC4=O)NC(=O)[C@H](Cc3ccccc3)NC(=O)[C@H](C)NC(=O)[C@H](C)NC(=O)[C@H](Cc3cccc(C(=O)O)c3)NC(=O)[C@H](CC(N)=O)NC1=O)NC(=O)[C@H](CC(C)(C)C)NC(=O)[C@H](CC(=O)O)NC2=O (relative stereo) [I-82, Ac-PL3-Asp-Npg-B5-Asn-3COOHF-Ala-Ala-Phe-Lys*3-PyrS2-3Thi-BztA-GlnR*3-Ala-NH2]	–	< 50 nM	3 to 10 µM
CC(=O)N1CCC[C@]12CC=CCCCC1(CCCC=CCCCOC(=O)N3CC[C@@]4(C3)NC(=O)[C@H](CCCCNC(=O)C[C@@H](C(N)=O)NC(=O)[C@H](Cc3csc5ccccc35)NC(=O)[C@H](Cc3ccsc3)NC4=O)NC(=O)[C@H](Cc3ccccc3)NC(=O)[C@H](C)NC(=O)[C@H](C)NC(=O)[C@H](Cc3cccc(C(=O)O)c3)NC(=O)[C@H](CC(=O)O)NC1=O)NC(=O)[C@H](CC(C)(C)C)NC(=O)[C@H](CC(=O)O)NC2=O (relative stereo) [I-34, Ac-PL3-Asp-Npg-B5-Asp-3COOHF-Ala-Ala-Phe-Lys*3-PyrS2-3Thi-BztA-AsnR*3-NH2]	–	< 50 nM	3 to 10 µM
CC(=O)N1CCC[C@]12CC=CCCCC1(CCCC=CCCCOC(=O)N3CC[C@@]4(C3)NC(=O)[C@H](CCCCNC(=O)CC[C@@H](C(=O)N[C@@H](C)C(N)=O)NC(=O)[C@H](Cc3csc5ccccc35)NC(=O)[C@H](Cc3ccsc3)NC4=O)NC(=O)[C@H](Cc3ccsc3)NC(=O)[C@H](C)NC(=O)C(C)(C)NC(=O)[C@H](Cc3cccc(C(=O)O)c3)NC(=O)[C@H](CC(=O)O)NC1=O)NC(=O)[C@H](CC(C)(C)C)NC(=O)[C@H](CC(=O)O)NC2=O (relative stereo) [I-364, Ac-PL3-Asp-Npg-B5-Asp-3COOHF-Aib-Ala-3Thi-Lys*3-PyrS2-3Thi-BztA-GlnR*3-Ala-NH2]	< 1.5 µM	< 50 nM	–
CC(=O)N1CCC[C@]12CC=CCCCC1(CCCC=CCCCOC(=O)N3CC[C@@]4(C3)NC(=O)[C@H](CCC(=O)NCCCC[C@@H](C(N)=O)NC(=O)[C@H](Cc3csc5ccccc35)NC(=O)[C@H](Cc3ccccc3)NC4=O)NC(=O)[C@H](Cc3ccccc3)NC(=O)[C@H](C)NC(=O)[C@H](CCCCNC(C)C)NC(=O)[C@H](CCC(N)=O)NC(=O)[C@H](CC(=O)O)NC1=O)NC(=O)[C@H](CC1CCCCC1)NC(=O)[C@H](CC(N)=O)NC2=O (relative stereo) [I-149, Ac-PL3-Asn-Cha-B5-Asp-Gln-iPrLys-Ala-Phe-GlnR*3-PyrS2-Phe-BztA-Lys*3-NH2]	–	200 to 750 nM	> 10 µM
CC(=O)N1CCC[C@]12CC=CCCCC1(CCCC=CCCCOC(=O)N3CC[C@@]4(C3)NC(=O)[C@H](CCCCNC(=O)CC[C@@H](C(=O)N[C@@H](C)C(N)=O)NC(=O)[C@H](Cc3csc5ccccc35)NC(=O)[C@H](Cc3ccsc3)NC4=O)NC(=O)[C@H](Cc3ccccc3)NC(=O)[C@H](C)NC(=O)C(C)(C)NC(=O)[C@H](CC(=O)O)NC(=O)[C@H](CCC(=O)O)NC1=O)NC(=O)[C@H](CC(C)(C)C)NC(=O)[C@H](CCC(=O)O)NC2=O (relative stereo) [I-554, Ac-PL3-Glu-Npg-B5-Glu-Asp-Aib-Ala-Phe-Lys*3-PyrS2-3Thi-BztA-GlnR*3-Ala-NH2]	> 10 µM	> 1000 nM	–
C[C@H](NC(=O)[C@@H]1CCC(=O)NCCCC[C@@H]2NC(=O)[C@H](Cc3ccccc3)NC(=O)[C@H](C)NC(=O)C(C)(C)NC(=O)[C@H](Cc3cccc(C(=O)O)c3)NC(=O)[C@H](CC(=O)O)NC(=O)[C@](C)(NC(=O)[C@@H]3CN(Cc4ccccc4)CC=CCCCC(=O)N4CCC[C@@]4(C)C(=O)N[C@@H](CC(=O)O)C(=O)N3)CCCC=CCCCOC(=O)N3CC[C@@](C3)(NC2=O)C(=O)N[C@@H](Cc2ccsc2)C(=O)N[C@@H](Cc2csc3ccccc23)C(=O)N1)C(N)=O (relative stereo) [I-519, 5hexenyl-MePro-Asp-[Bn][Allyl]Dap-R5-Asp-3COOHF-Aib-Ala-Phe-Lys*3-PyrS2-3Thi-BztA-GlnR*3-Ala-NH2]	> 10 µM	< 50 nM	–
CC(=O)N1CCC[C@]12CC=CCCCC1(CCCC=CCCCOC(=O)N3CC[C@@]4(C3)NC(=O)[C@H](CCCCNC(=O)CC[C@@H](C(N)=O)NC(=O)[C@H](Cc3csc5ccccc35)NC(=O)[C@H](Cc3ccsc3)NC4=O)NC(=O)[C@H](Cc3ccccc3)NC(=O)[C@H](C)NC(=O)[C@H](C)NC(=O)[C@H](CC(=O)O)NC(=O)[C@H](CC(=O)O)NC1=O)NC(=O)[C@H](CC(C)C)NC(=O)[C@H](CC(=O)O)NC2=O (single isomer, unassigned) [I-3, Ac-PL3-Asp-Leu-B5-Asp-Asp-Ala-Ala-Phe-Lys*3-PyrS2-3Thi-BztA-GlnR*3-NH2]	–	< 50 nM	3 to 10 µM
CC(=O)N1CCC[C@]12CC=CCCCC1(CCCC=CCCCOC(=O)N3CC[C@@]4(C3)NC(=O)[C@H](CCCCNC(=O)CC[C@@H](C(=O)N[C@@H](C)C(N)=O)NC(=O)[C@H](Cc3csc5ccccc35)NC(=O)[C@H](Cc3ccsc3)NC4=O)NC(=O)[C@H](Cc3ccccc3)NC(=O)[C@H](C)NC(=O)[C@H](CCC(=O)N3CCOCC3)NC(=O)[C@H](Cc3cccc(C(=O)O)c3)NC(=O)[C@H](CC(=O)O)NC1=O)NC(=O)[C@H](CC(C)(C)C)NC(=O)[C@H](CO)NC2=O (relative stereo) [I-324, Ac-PL3-Ser-Npg-B5-Asp-3COOHF-MorphGln-Ala-Phe-Lys*3-PyrS2-3Thi-BztA-GlnR*3-Ala-NH2]	> 10 µM	< 50 nM	–

Next, values leading:

IC50 ([1]; absolute IC50)	IC50 [2]	IC50 [1]	Compound
1.5 to 3 µM	< 50 nM	–	CC(=O)N1CCC[C@]12CC=CCCCC1(CCCC=CCCCOC(=O)N3CC[C@@]4(C3)NC(=O)[C@H](CCCCNC(=O)CC[C@@H](C(=O)N[C@@H](C)C(N)=O)NC(=O)[C@H](Cc3csc5ccccc35)NC(=O)[C@H](Cc3ccsc3)NC4=O)NC(=O)[C@H](Cc3cccs3)NC(=O)[C@H](C)NC(=O)C(C)(C)NC(=O)[C@H](Cc3cccc(C(=O)O)c3)NC(=O)[C@H](CC(=O)O)NC1=O)NC(=O)[C@H](CC(C)(C)C)NC(=O)[C@H](CC(=O)O)NC2=O (relative stereo) [I-365, Ac-PL3-Asp-Npg-B5-Asp-3COOHF-Aib-Ala-2Thi-Lys*3-PyrS2-3Thi-BztA-GlnR*3-Ala-NH2]
> 10 µM	< 50 nM	–	CC(=O)N1CCC[C@]12CC=CCCCC1(CCCC=CCCCOC(=O)N3CC[C@@]4(C3)NC(=O)[C@H](CCCCNC(=O)CC[C@@H](C(=O)N[C@@H](C)C(N)=O)NC(=O)[C@H](Cc3csc5ccccc35)NC(=O)[C@H](Cc3ccccc3C(=O)O)NC4=O)NC(=O)[C@H](Cc3ccccc3)NC(=O)[C@H](C)NC(=O)C(C)(C)NC(=O)[C@H](Cc3cccc(C(=O)O)c3)NC(=O)[C@H](CC(=O)O)NC1=O)NC(=O)[C@H](CC(C)(C)C)NC(=O)[C@H](CC(=O)O)NC2=O (relative stereo) [I-344, Ac-PL3-Asp-Npg-B5-Asp-3COOHF-Aib-Ala-Phe-Lys*3-PyrS2-2COOHF-BztA-GlnR*3-Ala-NH2]
> 10 µM	50 to 200 nM	–	CC(=O)N1CCC[C@]12CC=CCCCC1(CCCC=CCCCOC(=O)N3CC[C@@]4(C3)NC(=O)[C@H](CCCCNC(=O)CC[C@@H](C(=O)N[C@@H](C)C(=O)O)NC(=O)[C@H](Cc3csc5ccccc35)NC(=O)[C@H](Cc3ccccc3C(=O)O)NC4=O)NC(=O)[C@H](Cc3cccc(C(=O)O)c3)NC(=O)[C@H](C)NC(=O)C(C)(C)NC(=O)[C@H](Cc3cccc(C(=O)O)c3)NC(=O)[C@H](CC(=O)O)NC1=O)NC(=O)[C@H](CC(C)(C)C)NC(=O)[C@H](CC(=O)O)NC2=O (relative stereo) [I-351, Ac-PL3-Asp-Npg-B5-Asp-3COOHF-Aib-Ala-3COOHF-Lys*3-PyrS2-2COOHF-BztA-GlnR*3-Ala-OH]
3 to 10 µM	< 50 nM	–	CC(=O)N1CCC[C@]12CC=CCCCC1(CCCC=CCCCOC(=O)N3CC[C@@]4(C3)NC(=O)[C@H](CCCCNC(=O)CC[C@@H](C(=O)N[C@@H](C)C(N)=O)NC(=O)[C@H](Cc3csc5ccccc35)NC(=O)[C@H](Cc3ccsc3)NC4=O)NC(=O)[C@H](Cc3ccc4ccccc4c3)NC(=O)[C@H](C)NC(=O)C(C)(C)NC(=O)[C@H](Cc3cccc(C(=O)O)c3)NC(=O)[C@H](CC(=O)O)NC1=O)NC(=O)[C@H](CC(C)(C)C)NC(=O)[C@H](CC(=O)O)NC2=O (relative stereo) [I-357, Ac-PL3-Asp-Npg-B5-Asp-3COOHF-Aib-Ala-2NapA-Lys*3-PyrS2-3Thi-BztA-GlnR*3-Ala-NH2]
–	< 50 nM	1.5 to 3 µM	CC(=O)N1CCC[C@]12CC=CCCCC1(CCCC=CCCCOC(=O)N3CC[C@@]4(C3)NC(=O)[C@H](CCCCNC(=O)CC[C@@H](C(=O)N[C@@H](C)C(N)=O)NC(=O)[C@H](Cc3csc5ccccc35)NC(=O)[C@H](Cc3ccccn3)NC4=O)NC(=O)[C@H](Cc3ccccc3)NC(=O)[C@H](C)NC(=O)C(C)(C)NC(=O)[C@H](Cc3cccc(C(=O)O)c3)NC(=O)[C@H](CC(=O)O)NC1=O)NC(=O)[C@H](CC(C)(C)C)NC(=O)[C@H](CC(=O)O)NC2=O (relative stereo) [I-299, Ac-PL3-Asp-Npg-B5-Asp-3COOHF-Aib-Ala-Phe-Lys*3-PyrS2-2PyrA-BztA-GlnR*3-Ala-NH2]
1.5 to 3 µM	< 50 nM	–	CC(=O)N1CCC[C@]12CC=CCCCC1(CCCC=CCCCOC(=O)N3CC[C@@]4(C3)NC(=O)[C@H](CCCCn3cc(nn3)C[C@@H](C(=O)N[C@@H](C)C(N)=O)NC(=O)[C@H](Cc3csc5ccccc35)NC(=O)[C@H](Cc3ccccc3)NC4=O)NC(=O)[C@H](Cc3ccccc3)NC(=O)[C@H](C)NC(=O)C(C)(C)NC(=O)[C@H](Cc3cccc(C(=O)O)c3)NC(=O)[C@H](CC(=O)O)NC1=O)NC(=O)[C@H](CC(C)(C)C)NC(=O)[C@H](CC(=O)O)NC2=O (stereo partly drawn) [I-418, Ac-PL3-Asp-Npg-B5-Asp-3COOHF-Aib-Ala-Phe-TriAzLys*3-PyrS2-Phe-BztA-sAla*3-Ala-NH2]

Source: patent US20240360179A1, “STAPLED PEPTIDES AND METHODS THEREOF” (FOG PHARMACEUTICALS, INC., priority 2021, published 2024)
